# According to published antibiotic growth screens (doi:10.1038/s41589-023-01349-8):
# This is one part of the list.
# Test system: A. baumannii ATCC 17978
# Experiment: relative growth (fraction of control); higher = less inhibition
# Conditions: 50 µM
row,Compound,relative growth
1,CCCNC(=O)Nc1ccc2c(c1)OC[C@H](C)N(Cc1ccc(-c3ccccn3)cc1)C[C@H](C)[C@H](OC)CN(C)C2=O,1.12
2,Cl.N=C(N)NC(=N)NCCc1ccccc1,0.934
3,CN(CCO)S(=O)(=O)c1ccc2c(c1)C(=NO)c1cc(S(=O)(=O)N(C)CCO)ccc1-2,1.03
4,CCCOc1ccccc1-c1nc2[nH]nnc2c(=O)[nH]1,1.01
5,CC(C)=CCC1=C(O)C(=O)c2ccccc2C1=O,0.861
6,COc1cccc(NC(=O)N[C@H]2C=C[C@@H](CC(=O)N3CCN(C)CC3)O[C@H]2CO)c1,1.03
7,C[C@@H]1CN([C@H](C)CO)C(=O)c2ccccc2-c2ccccc2CO[C@@H]1CN(C)C(=O)Nc1ccccc1C(F)(F)F,0.817
8,Clc1ccc(C(Cn2ccnc2)OCc2c(Cl)cccc2Cl)c(Cl)c1.O=[N+]([O-])O (stereo not drawn),0.924
9,COc1ccc(S(=O)(=O)N(C)C[C@@H]2Oc3c(NC(=O)Nc4cccc5ccccc45)cccc3C(=O)N([C@H](C)CO)C[C@H]2C)cc1,1.03
10,Nc1nc(=O)n([C@@H]2CS[C@H](CO)O2)cc1F,1.01
11,COc1ccc(Cl)cc1C(=O)NCCc1ccc(S(=O)(=O)NC(=O)NC2CCCCC2)cc1,0.927
12,O=C1CCC[C@H]2[C@@H]3CCC[N+]4([O-])CCC[C@H](CN12)[C@H]34 (stereo partly drawn),0.881
13,CSc1nc(=O)c(CCO)c(C)[nH]1,0.896
14,Cc1cccc(S(=O)(=O)N2C[C@H](O)COC[C@H]3O[C@H](CC(=O)NCCCN4CCOCC4)CC[C@@H]32)c1,0.805
15,COc1cccc(S(=O)(=O)N(C)C[C@@H]2Oc3cc(C#CCC(C)C)ccc3S(=O)(=O)N([C@H](C)CO)C[C@@H]2C)c1,1.33
16,CN1CCN(C(=O)C[C@@H]2CC[C@@H]3[C@H](COC[C@@H](O)CN3C(=O)Nc3cc(Cl)cc(Cl)c3)O2)CC1,0.823
17,COc1oc(C(=O)NC2CCCCC2)c(-c2ccc(Cl)cc2)c1S(=O)(=O)c1ccccc1NC(C)=O,0.898
18,NS(=O)(=O)c1ccc(F)c([N+](=O)[O-])c1,0.887
19,CC(=O)N1CCc2c(sc(N)c2C(N)=O)C1,1.16
20,COC1CC2CCC(C)C(O)(O2)C(=O)C(=O)N2CCCCC2C(=O)OC(C(C)CC2CCC(O)C(OC)C2)CC(=O)C(C)/C=C(\C)C(O)C(OC)C(=O)C(C)CC(C)/C=C/C=C/C=C/1C (stereo not drawn),1.02
21,Cl.N[C@@H](Cc1ccccc1)C(=O)O,0.888
22,O=C(CCCCCNC(=O)OC[C@]12N=C3SCC(=O)N3[C@H](c3ccccc3O1)[C@H]2COC(=O)c1ccccc1)NO,0.954
23,C[C@H]1CN([C@@H](C)CO)S(=O)(=O)c2ccc(C#CC3CC3)cc2O[C@H]1CN(C)Cc1ccc(F)cc1,1.08
